Test results reported in patent US20240002326A1, “COMPOUNDS AND USE THEREOF IN METHODS OF TREATMENT” (The University of Queensland, priority 2016, published 2024).
pIC50: −log10 of the molar value.

By UniProt entry, the sequences of proteins in these tests, tags left out. Residues count along the entry.
UniProt P43267, 47-115 limits assumed: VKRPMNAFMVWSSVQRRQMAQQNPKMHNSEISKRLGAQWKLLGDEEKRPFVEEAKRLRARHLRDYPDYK
UniProt F1N1F9, 1-410: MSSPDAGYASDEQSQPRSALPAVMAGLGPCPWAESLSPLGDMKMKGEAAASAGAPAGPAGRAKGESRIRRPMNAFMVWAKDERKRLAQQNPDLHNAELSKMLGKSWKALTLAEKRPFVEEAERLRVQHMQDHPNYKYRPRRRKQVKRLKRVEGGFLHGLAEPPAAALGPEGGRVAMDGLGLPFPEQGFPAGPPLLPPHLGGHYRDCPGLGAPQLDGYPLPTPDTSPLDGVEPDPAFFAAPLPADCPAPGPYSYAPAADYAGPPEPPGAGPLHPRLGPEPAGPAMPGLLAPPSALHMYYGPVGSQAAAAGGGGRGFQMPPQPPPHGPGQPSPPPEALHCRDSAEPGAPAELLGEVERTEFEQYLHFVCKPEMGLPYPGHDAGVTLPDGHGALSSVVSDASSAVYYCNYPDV

Assays:
Sodium Channel, Site 2 = test: Off-target radioligand binding, Sodium Channel Site 2; settings: Site 2, Rat
SOX15 HMG fragment = SOX15 HMG fragment (Mus musculus (Mouse), UniProt P43267); test: FP DNA-binding competition assay, SOX15 HMG fragment; settings: read-out: DNA-binding inhibition IC50, SOX15 HMG; HMG only fragment
Description: Mouse SOX HMG fragments. The HMG domains of mouse SOX2 (Group B), SOX11 (Group C), SOX6 (Group D), SOX9 (Group E), SOX18 (Group F) and SOX15 (Group G) were BP cloned from cDNA templates (IMAGE cDNA clone IDs: Sox18: 3967084; Sox9: 5354229; Sox4: 6822618) into a pDONRTM221 pENTRY vector, sequenced and recombined into a pETG20A or a pHisMBP expression plasmid using Gateway®LR Technology (Ng et al., 2012). Constructs were transformed into Escherichia coli BL21(DE3) cells (Luria-Bertani, 100 μg/ml Ampicillin).
The DNA-binding competition assay was performed in black 384-well plates, with mouse full length SOX18, or SOX-HMG fragments. All experiments were performed using a fluorescently-labelled Prox1-DNA element. […]
The DNA-binding competition assay was performed in 25 uL, in black 384-well plates, using either 30 mM HEPES (N-2-Hydroxyethylpiperazine-N′-2-Ethanesulfonic Acid) (pH 7.5, with 100 mM KCl, 40 mM NaCl, 10 mM NH4OAc, […], 2 mM MgCl2, 0.5 mM EDTA, 0.01% NP-40) for mouse full length SOX18, or Tris-NaCl (10 mM Tris pH 8.0 and 100 mM NaCl) for SOX-HMG fragments. […] After mixing protein, DNA probe and compound, plates were sealed and briskly agitated in the dark for 5 minutes at room temperature, 10 minutes at 37° C., and 30 minutes at room temperature, before reading fluorescence polarization on a Tecan M1000Pro (λexc=485 nm, λem=525 nm). […]

Nicotinic Acetylcholine = test: Off-target radioligand binding, Nicotinic Acetylcholine; settings: Human
[1] = test system: SOX18 overexpressing HUVECs; test: RNA-seq / ChIP-seq distance-to-TSS analysis in SOX18 overexpressing HUVECs; assay type: cell-based, human; settings: 25 μM Sm4, HUVECs
Description: Following IP, DNA amplification was performed using TruSeq ChIPseq kit (Illumina, IP-202-1012), using 0.5 μM of the universal reverse PCR primer and the forward PCR primer containing the index sequence of choice in 50 μL 1×NEBNext High-Fidelity PCR Master Mix (New England Biolabs, M0541). The number of PCR cycles ranged from 13 to 18, depending on the ChIP efficiency. The PCR product was purified using AMPure beads (1.8 volume) and eluted in 20 μL of resuspension buffer (Tris-Acetate 10 mM pH 8). The library was quantified using the KAPA library quantification kit for Illumina sequencing platforms (KAPA Biosystems, KK4824) and 50 bp single end reads were sequenced on a HiSeq2500 following the manufacturer's protocol. Illumina fastq files were mapped to the GRCh37/UCSC hg19 genome assembly using bowtie, and peaks were called using MACS version 2.1.0. using input. […]
Quadruplicate samples were processed for whole transcriptome sequencing using TruSeq stranded total RNA library prep kit (Illumina). Reads were mapped to the hg19 reference human genome using STAR aligner (Dobin et al. 2013), and only uniquely aligned reads were considered. Transcripts were assigned to genes using htseq_count (HTseq package) (Anders, Pyl, and Huber 2015), and differential expression was calculated using DEseq2 (Love, Huber, and Anders 2014). […]

SOX17 = SOX17 (Bos taurus, UniProt F1N1F9); test: Cell based reporter assay for SOX17 activity (ECE1-TK-β-gal, BAECs); settings: any tested concentration (≤50 μM)

Q: For `O=C(O)c1c(O)cccc1CCc1ccc2ccccc2c1`, which “Inhibition at 10 μM (%)” value (Sodium Channel, Site 2) is on record?
A: −13%

Q: And the pIC50 (SOX15 HMG fragment)?
A: 3.66 to 3.70

Q: What about the “Inhibition at 10 μM (%)” value (Nicotinic Acetylcholine) of the same compound?
A: 3%

Q: And the “SOX18 peaks closer to TSS of Sm4 down-regulated genes than to random TSSs” value [1]?
A: 3.6 fold

Q: And the “TSS of Sm4 down-regulated genes closer to c-JUN binding events” value [1]?
A: 2.05 fold

Q: And the “transcriptional activity of SOX17” value (SOX17)?
A: did not affect
